US20040091985A1, “NAD phosphite oxidoreductase, a novel catalyst from bacteria for regeneration of NAD(P)H” (priority 2002, published 2004)

Chains of the proteins cited; added tags and fusions are not shown. Lines headed by an entry give the natural chain unless they say otherwise; changes in a name come on top.
UniProt O69054: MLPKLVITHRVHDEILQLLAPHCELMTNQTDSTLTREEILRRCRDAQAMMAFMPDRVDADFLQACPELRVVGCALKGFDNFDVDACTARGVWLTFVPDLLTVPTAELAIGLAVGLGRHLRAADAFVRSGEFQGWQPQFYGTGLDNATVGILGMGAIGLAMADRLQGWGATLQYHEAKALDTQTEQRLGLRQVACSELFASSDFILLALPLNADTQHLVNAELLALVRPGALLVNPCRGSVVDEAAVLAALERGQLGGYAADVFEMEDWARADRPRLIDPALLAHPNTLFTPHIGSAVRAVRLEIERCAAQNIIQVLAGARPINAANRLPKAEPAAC

Target: PtxD (Stutzerimonas stutzeri, UniProt O69054)
Assay: Inhibition of PtxD activity by cofactor analogs and substrate analogs
Type: biochemical, Pseudomonas stutzeri WM88
Conditions: see Table 2

Substance	inhibitory activity on PtxD, in words
Formate	moderately inhibited
D-2-Hydroxy-4-methylvalerate	moderately inhibited
